Data on 34 compounds can be found in PubChem BioAssay AID1259313 (Sanford-Burnham Center for Chemical Genomics, 2017).

The entries are a selection whose mix differs from that of the whole data set. Active and inactive are the calls of the source.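 Rule for the calls: active = melting temperature shift of at least 10% of the positive control shift, at one fixed dose; inactive = the rest.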

In the assay the test system is Glutamate receptor ionotropic, NMDA 3A (GRIN3A) ligand-binding domain. Description: NR3A LBD thermal stabilization by compounds – biophysical, differential scanning fluorimetry, uHTS, primary screen (AID 1259313). To be noted: at 25 µM, hits give high values, 0% = protein alone, 100% = glycine-bound protein. (DSF heats the sample and reads unfolding from a dye or from intrinsic fluorescence.)
For the compound `CCOC(=O)C(CC)C1=NC(C)(C)Cc2ccccc21.O=[N+]([O-])c1cc([N+](=O)[O-])c(O)c([N+](=O)[O-])c1` (centres undefined), the Tm shift relative to glycine control was inactive: -7.09%.
As for `CC1=C2N=C(C=C3N=C(C(C)=C4[N-][C@@](C)([C@@H]5N=C1[C@](C)(CCC(=O)NC[C@@H](C)OP(=O)([O-])O[C@H]1[C@@H](O)[C@@H](n6cnc7cc(C)c(C)cc76)O[C@@H]1CO)[C@H]5CC(N)=O)[C@@](C)(CC(N)=O)[C@@H]4CCC(N)=O)[C@@](C)(CC(N)=O)[C@@H]3CCC(N)=O)C(C)(C)[C@@H]2CCC(N)=O.[C-]#N.[Co+3]`, the Tm shift relative to glycine control was inactive: 1.75%.
For `O=[N+]([O-])c1cc([N+](=O)[O-])c(Nc2nnnn2CCO)c([N+](=O)[O-])c1`, the Tm shift relative to glycine control was inactive: -12.8%.
For the compound `COc1ccccc1OP(C)(=O)Nc1c(C)cccc1C` (centres undefined), the Tm shift relative to glycine control is inactive: -0.17%.
Take `CN1CCCCC1COC(=O)C1(O)c2ccccc2CCc2ccccc21` (centres undefined): the Tm shift relative to glycine control was inactive: 1.56%.
Under `CCCOc1ccc(NP(C)(=O)Oc2ccc(Cl)cc2)cc1` (centres undefined) stands inactive: 1.19%; under `CP(=O)(Nc1ccc(SC(F)(F)F)cc1)Oc1ccccc1` (centres undefined), inactive: 0.39%.
The figure for `O=[N+]([O-])c1cc([N+](=O)[O-])c(-n2nnc3ccccc32)c([N+](=O)[O-])c1` is inactive: -17.5%.
With `O=[N+]([O-])c1cc([N+](=O)[O-])c(-c2cnn(-c3ccccc3)c2)c([N+](=O)[O-])c1`, the Tm shift relative to glycine control was inactive: 3.02%.
Consider `Cc1nc2ccc3ccccc3c2s1.O=[N+]([O-])c1cc([N+](=O)[O-])c(O)c([N+](=O)[O-])c1`, for which the Tm shift relative to glycine control was inactive: -26.8%.
In the case of `CP(=O)(Oc1ccccc1)OC(c1ccccc1)C(F)(F)F` (centres undefined), the Tm shift relative to glycine control is inactive: -0.24%.
As for `Cc1cccc(C)c1OP(C)(=O)Nc1ccc(SC(F)(F)F)cc1` (centres undefined), the Tm shift relative to glycine control was inactive: 0.82%.
Take `CP(=O)(Nc1ccc(SC(F)(F)F)cc1)Oc1ccc(Cl)cc1` (centres undefined): the Tm shift relative to glycine control is inactive: -6.43%.
As to `Cc1cc(C)cc(OP(C)(=O)Nc2ccc(SC(F)(F)F)cc2)c1` (centres undefined), the Tm shift relative to glycine control was inactive: -2.17%.
Turning to `CP(=O)(NC(=O)Nc1ccccc1)Oc1ccccc1` (centres undefined), the Tm shift relative to glycine control is inactive: 0.18%.
Under `CCc1ccc(OP(C)(=O)N2CCN(c3ccc([N+](=O)[O-])cc3)CC2)cc1` (centres undefined) stands inactive: 3.12%.
On to `CCOP(C)(=S)SCC(=O)NC(C)C(=O)O` (centres undefined), for which the Tm shift relative to glycine control was inactive: 0.16%.
Turning to `CCOC(=O)c1ccc(NP(C)(=O)Oc2ccc(OC)cc2)cc1` (centres undefined), the Tm shift relative to glycine control is inactive: -0.39%.
On to `O=[N+]([O-])c1cc([N+](=O)[O-])c(O)c([N+](=O)[O-])c1.c1ccc(Oc2ccncc2)cc1`, for which the Tm shift relative to glycine control was inactive: -3.42%.
With `CP(=O)(Nc1ccccn1)Oc1ccc(Cl)cc1` (centres undefined), the Tm shift relative to glycine control was inactive: 1.42%.
Regarding `CP(=S)(Nn1cnnc1)Oc1ccccc1` (centres undefined), the Tm shift relative to glycine control was inactive: -2.53%.
`COc1ccccc1OP(C)(=O)Nc1ccccc1` (centres undefined): the Tm shift relative to glycine control was inactive: -1.55%.
Regarding `CP(=O)(Nc1ccccc1Br)Oc1ccccc1` (centres undefined), the Tm shift relative to glycine control was inactive: 5.23%.
Under `O=[N+]([O-])c1cc([N+](=O)[O-])c(Nc2cccnc2)c([N+](=O)[O-])c1` stands inactive: -37.4%; under `Cc1cccc(C)c1OP(C)(N)=O` (centres undefined), inactive: -0.23%; under `CC(C)(C)c1ccc(OP(C)(=O)Nc2ccc(SC(F)(F)F)cc2)cc1` (centres undefined), inactive: -4.56%.
With `O=[N+]([O-])c1ccc2c(c1)C=Nc1ccccc1O2`, the Tm shift relative to glycine control is inactive: 0.42%.
On to `CCOC(=O)c1ccc(NP(C)(=O)Oc2ccccc2)cc1` (centres undefined), for which the Tm shift relative to glycine control was inactive: -1.52%.
Consider `Cc1ccc(NP(C)(=O)Oc2ccccc2)c(C)c1` (centres undefined), for which the Tm shift relative to glycine control was inactive: -0.72%.
The figure for `COc1ccccc1OP(C)(=O)Nc1ccc(C)cc1` (centres undefined) is inactive: 0.35%; for `COc1ccc(OP(C)(=O)Nc2cccc(F)c2)cc1` (centres undefined) it is inactive: -0.26%; for `COc1ccccc1OP(C)(=O)Nc1cc(Cl)ccc1C` (centres undefined) it is inactive: -2.33%.
On to `Cc1cc(C)cc(OP(C)(N)=O)c1` (centres undefined), for which the Tm shift relative to glycine control was inactive: 1.48%.
Consider `CCN(CC)CCCOC(=O)C(O)(c1ccccc1)c1ccccc1`, for which the Tm shift relative to glycine control was inactive: -1.91%.
